These results are taken from ChEMBL document CHEMBL1944520, “Discovery of 3-aryloxy-lactam analogs as potent androgen receptor full antagonists for treating castration resistant prostate cancer” (Bioorg Med Chem Lett, 2012).

Sequences of proteins named here, by UniProt entry; tags and fusion partners are left off. A change or cut given only in a name is not applied to a line headed by its entry.
UniProt P10275: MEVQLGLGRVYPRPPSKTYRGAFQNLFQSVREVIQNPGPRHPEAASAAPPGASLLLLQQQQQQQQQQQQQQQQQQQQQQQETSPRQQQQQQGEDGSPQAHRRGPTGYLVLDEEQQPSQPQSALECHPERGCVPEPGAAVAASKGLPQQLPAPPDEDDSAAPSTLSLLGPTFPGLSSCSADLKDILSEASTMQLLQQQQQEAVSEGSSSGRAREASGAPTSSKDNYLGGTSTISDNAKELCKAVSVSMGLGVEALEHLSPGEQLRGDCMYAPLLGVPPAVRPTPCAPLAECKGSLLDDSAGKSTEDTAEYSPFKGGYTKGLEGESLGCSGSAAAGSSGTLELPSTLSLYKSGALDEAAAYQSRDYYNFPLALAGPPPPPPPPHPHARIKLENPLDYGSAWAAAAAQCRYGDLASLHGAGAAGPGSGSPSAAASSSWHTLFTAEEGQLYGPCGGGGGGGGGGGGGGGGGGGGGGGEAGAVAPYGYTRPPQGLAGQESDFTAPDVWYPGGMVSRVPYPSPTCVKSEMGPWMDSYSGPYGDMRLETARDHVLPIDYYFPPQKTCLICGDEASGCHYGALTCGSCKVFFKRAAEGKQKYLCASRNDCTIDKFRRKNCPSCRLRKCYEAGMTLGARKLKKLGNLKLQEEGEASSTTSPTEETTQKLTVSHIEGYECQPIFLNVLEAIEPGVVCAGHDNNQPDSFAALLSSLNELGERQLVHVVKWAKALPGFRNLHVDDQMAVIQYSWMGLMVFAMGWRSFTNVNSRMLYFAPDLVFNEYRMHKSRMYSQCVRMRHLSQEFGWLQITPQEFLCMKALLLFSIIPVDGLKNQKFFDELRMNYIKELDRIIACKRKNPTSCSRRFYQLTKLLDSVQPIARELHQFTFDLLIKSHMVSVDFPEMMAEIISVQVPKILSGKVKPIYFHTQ

This assay has as its target Androgen receptor (Homo sapiens, UniProt P10275). Description: Agonist activity at androgen receptor expressed in human LNAR cells as induction of luciferase activity by spectrophotometry relative to untreated control. Note: test concentration or dose not given here. The assay is classed as functional, cell-based.

Consider `CNC(=O)c1ccc(N2C(=S)N(c3ccc(C#N)c(C(F)(F)F)c3)C(=O)C23CCC3)cc1F`, for which the fold change (FC) stood at 0.876.
